The record followed here is paper PMC4307257 (International Journal of Molecular Sciences, 2014).

The assay concerns the target T1, human amyloid-β protein fragment (1–42) (human, UniProt P05067 672-713).
T1 construct: amyloid-β peptide 1-42, cut from the amyloid precursor protein (APP), human; numbers count on: the amyloid-β peptide; coupled covalently to Affi-Gel 10 or, by amine coupling, to a CM5 chip; also called amyloid-β peptide 1–42; amyloid-beta; source: bought: Sigma-Aldrich
Briefly: SPR; Biacore 3000, CM5 chip; amyloid-β or actin amine-coupled (100 µg/mL in 10 mM acetate pH 4.0); native or oxidized GAPDH 1–10 µM injected in 50 mM potassium phosphate pH 7.4, 5 µL/min, 5 min; equilibrium responses fitted to a single-site model; also with 0.1 mM isatin or 0.01–5 mM NAD. The settings on record: both partners purified.

B1: Rabbit muscle glyceraldehyde-3-phosphate dehydrogenase (GAPDH), native (enzyme)
chain: not shown
notes: glyceraldehyde-3-phosphate dehydrogenase (EC 1.2.1.12), rabbit muscle; also called intact GAPDH; native GAPDH; source: purified from rabbit muscle (method of Scopes and Stoter)
Regarding B1, the affinity, expressed as Kd, was 220 ± 20 nM.

What is called Kd is the equilibrium constant for the complex coming apart. Low values mean a tighter complex, high ones a looser complex.
